Assays:
human orexin 2 receptors [1] = molecular target: T1, human orexin 2 receptors (Homo sapiens (Human), UniProt O43614); test: Calcium Accumulation in Cells (FLIPR), antagonism of orexin A; type: cell-based; conditions: Cheng-Prusoff corrected, read-out: FLIPR hOx2R Ki
Protocol: (§1) Calcium Accumulation in Cells (FLIPR):
Cells expressing human orexin 1 or human orexin 2 receptors, were seeded at 8,000 cells/well in 384 well black-walled clear bottom, poly-D-lysine coated plates.
On the day of the experiment, the cells seeded in black plates were treated with assay buffer containing the Ca^2+ sensitive fluorescent dye Fluo4-AM (2 μM), and probenecid (0.1 mM). After 1 h plates were washed twice with, and resuspended in, assay buffer containing probenecid (0.1 mM) using a multi plate washer. […] Fluorescence measurements were then continued every 1 S for 120 S followed by every 4 S for 240 S.
(§2) The measurements were typically made in two sequences:
(§3) In the first round, compounds of formula (I) or (I′) were tested alone, to detect possible agonist activity. Compounds of formula I or I′ were tested usually in a concentration range from 10^−9 M to 10^−5 M.
(§4) In the second round, performed one hour later (to allow for equilibration), Orexin A was tested either in the absence (calibration curves, Orexin A agonist controls) or in the presence of compounds of formula (I) or (I′) to determine antagonism.

Amino acid sequences for entries named in this document (tags omitted).
UniProt O43614, whole entry: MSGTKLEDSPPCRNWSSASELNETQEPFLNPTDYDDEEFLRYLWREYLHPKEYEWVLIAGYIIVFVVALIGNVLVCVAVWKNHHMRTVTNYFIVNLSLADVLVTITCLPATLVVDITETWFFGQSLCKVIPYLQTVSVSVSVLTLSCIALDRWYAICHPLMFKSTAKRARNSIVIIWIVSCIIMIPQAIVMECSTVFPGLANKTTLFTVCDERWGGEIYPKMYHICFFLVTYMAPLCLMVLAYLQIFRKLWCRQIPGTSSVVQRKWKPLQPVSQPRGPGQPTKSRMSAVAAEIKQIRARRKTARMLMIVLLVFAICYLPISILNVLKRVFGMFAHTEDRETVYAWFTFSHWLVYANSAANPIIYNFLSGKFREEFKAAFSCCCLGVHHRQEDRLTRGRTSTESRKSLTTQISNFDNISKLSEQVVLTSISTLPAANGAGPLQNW
UniProt O43613, whole entry: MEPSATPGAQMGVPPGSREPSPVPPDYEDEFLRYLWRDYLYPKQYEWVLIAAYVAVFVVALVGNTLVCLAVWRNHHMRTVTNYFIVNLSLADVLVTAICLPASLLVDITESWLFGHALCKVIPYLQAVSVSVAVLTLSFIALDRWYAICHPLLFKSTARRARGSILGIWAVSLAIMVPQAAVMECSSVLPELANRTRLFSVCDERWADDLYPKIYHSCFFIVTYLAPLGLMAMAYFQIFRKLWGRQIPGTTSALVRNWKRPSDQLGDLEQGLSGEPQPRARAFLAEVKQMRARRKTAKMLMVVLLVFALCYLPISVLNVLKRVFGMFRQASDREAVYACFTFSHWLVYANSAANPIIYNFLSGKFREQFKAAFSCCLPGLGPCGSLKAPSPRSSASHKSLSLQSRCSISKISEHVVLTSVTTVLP

human orexin 1 receptors [2] = molecular target: T2, human orexin 1 receptors (Homo sapiens (Human), UniProt O43613); test: as above; type: cell-based; conditions: for Ki: antagonism of orexin A, Cheng-Prusoff corrected, read-out: FLIPR hOx1R Ki
Protocol: as §1
Cells expressing human orexin 1 or human orexin 2 receptors, were seeded at 8,000 cells/well in 384 well black-walled clear bottom, poly-D-lysine coated plates. After 24 h, the medium was removed and cells were washed once with phosphate buffered saline and serum-deprived overnight in assay buffer (130 mM NaCl, 5.4 mM KCl, 1.8 mM CaCl2, 0.8 mM MgSO4, 0.9 mM NaH2PO4, 25 mM glucose, 20 mM HEPES, pH 7.4) containing bovine serum albumin (1% w/v).
On the day of the experiment, the cells seeded in black plates were treated with assay buffer containing the Ca^2+ sensitive fluorescent dye Fluo4-AM (2 μM), and probenecid (0.1 mM). After 1 h plates were washed twice with, and resuspended in, assay buffer containing probenecid (0.1 mM) using a multi plate washer. The plates were placed into a FLIPR II (Fluorometric Imaging Plate Reader, Molecular Devices, Sunnyvale, Calif., USA) and baseline fluorescence (fluorescence light units, FLU) was measured (5 measurements, 2 S each; laser excitation 488 nm at 0.6-1 W, CCD camera exposure 0.4 s) before addition of buffer alone (basal) or containing test compounds (either compound of formula (I) or (I′) alone, agonist alone or agonist in the presence of various concentrations of compounds of formula (I) or (I′)). Fluorescence measurements were then continued every 1 S for 120 S followed by every 4 S for 240 S.
as §2, §3, §4

human orexin 1 receptors [3] = molecular target: T2, human orexin 1 receptors; test: Radioligand Binding Assay I ([125I]orexin A competition, cell membranes); conditions: read-out: binding I hOx1R Kd
Protocol: (§5) Radioligand Binding Assay I
(§6) For crude cell membrane preparations, cells (CHO, Chinese hamster ovary or HEK, human embryonic kidney) expressing human orexin 1 or human orexin 2 receptors, were washed with HEPES (10 mM, pH 7.5), scraped off the culture plates with the same buffer, and centrifuged at 4° C. for 5 min at 2500×g. The cell pellet was either stored at −80° C. or used directly. Before the experiments, cell membranes were re-suspended in binding assay buffer (10 mM HEPES, 0.5% (w/v) bovine serum albumin, pH 7.5) by homogenisation with a Polytron homogeniser at 50 Hz for 20 s. Cell membranes were also used as made available by commercial providers.
(§7) In initial saturation experiments (to calculate Bmax), cell homogenates (150 μl) were incubated with 25-300 pM of the radioligand ([^125I]orexin A, 50 μl), 8 concentrations in triplicates in the presence or absence Orexin A (1 μM, 50 μl) to define non specific binding. Bound radioactivity was measured, and data were analysed with the program XLFIT or Graphpad Prism. Protein concentration was determined according to the Bradford/BioRad Protein Assay Kit. […]

human orexin 2 receptors [4] = molecular target: T1, human orexin 2 receptors; test: as above; conditions: read-out: binding I hOx2R Kd
Protocol: as §5, §6, §7

Row | SMILES | Ki (human orexin 2 receptors [1]) [nM] | Ki (human orexin 1 receptors [2]) [nM] | Kd (human orexin 1 receptors [3]) [nM] | Kd (human orexin 2 receptors [4]) [nM] | inhibition at 10 µM (human orexin 1 receptors [2]; measured at a concentration of 10 μM of compound, read-out: FLIPR hOx1R % inhibition value) [%]
1 | Cc1n[nH]c(C)c1[C@H](C)NC(=O)COc1cc(C(F)(F)F)c2c(-c3ccccc3)nn(C)c2n1 [Example 1.6, (S)—N-(1-(3,5-dimethyl-1H-pyrazol-4-yl)ethyl)-2-(1-methyl-3-phenyl-4-(trifluoromethyl)-1H-pyrazolo[3,4-b]pyridin-6-yloxy)acetamide] | 2 | 5 |  |  | 
2 | Cc1n[nH]c(C)c1C(C)NC(=O)COc1cc(C(F)(F)F)c2c(-c3ccccc3)nn(C)c2n1 (stereo not shown) [Example 1.38, N-(1-(3,5-dimethyl-1H-pyrazol-4-yl)ethyl)-2-(1-methyl-3-phenyl-4-(trifluoromethyl)-1H-pyrazolo[3,4-b]pyridin-6-yloxy)acetamide] | 3 | 4 | 6 | 16 | 
3 | Cc1n[nH]c(C)c1[C@@H](C)NC(=O)COc1cc(C(F)(F)F)c2c(-c3ccccc3)nn(C)c2n1 [Example 1.62, (R)-N-(1-(3,5-dimethyl-1H-pyrazol-4-yl)ethyl)-2-(1-methyl-3-phenyl-4-(trifluoromethyl)-1H-pyrazolo[3,4-b]pyridin-6-yloxy)acetamide] |  |  |  |  | < 10

Source: US8742106B2 (Novartis AG, priority 2009, dated 2014)
